The values below come from ChEMBL document CHEMBL2346504, “Olive secoiridoids and semisynthetic bioisostere analogues for the control of metastatic breast cancer” (Bioorg Med Chem, 2013).

Test [1] concerns MDA-MB-231. Kind of test: Cytotoxicity against human MDA-MB-231 cells after 24 hrs by MTT assay. Conditions: MDA-MB-231, 24 h. A general note: Tetrazolium assays rely on reduction of a dye to a coloured formazan, in cell work by metabolically active cells.
The test system of test [2] is MDA-MB-231. Briefly: Antimigratory activity against human MDA-MB-231 cells after 24 hrs by wound healing assay. Particulars: MDA-MB-231, 24 h.

As to `C/C=C(/C=O)[C@@H](CC=O)CC(=O)OCCc1ccc(O)cc1` [(-)-OLEOCANTHAL], the IC50 (usually the concentration that gives 50% inhibition) turned out to be 15 µM in the test on MDA-MB-231 [1] and 7.5 µM in the test with MDA-MB-231 [2].
